Test results as given in publication PMC4740303, “The Sigma-2 Receptor and Progesterone Receptor Membrane Component 1 are Different Binding Sites Derived From Independent Genes” (EBioMedicine, 2015).

Assays:
S2R [1] = molecular target: T1, S2R (Mus musculus, UniProt Q8VD00); test: [^125I]-IAF photolabeling of the S2R in NSC34 cell membranes; assay type: binding; settings: NSC34 membranes (control and PGRMC1 knockout); 5 μM
T1 construct: Membranes (28 μg total proteins per reaction) prepared from NSC34 cells of controls, PGRMC1 knockout, or PGRMC1-3 × HA overexpression; endogenous in cells; host or cells: NSC34 cells (control, PGRMC1 knockout clones 38 and 207, PGRMC1-3xHA overexpressing)
T1 sequence (Q8VD00 1-176): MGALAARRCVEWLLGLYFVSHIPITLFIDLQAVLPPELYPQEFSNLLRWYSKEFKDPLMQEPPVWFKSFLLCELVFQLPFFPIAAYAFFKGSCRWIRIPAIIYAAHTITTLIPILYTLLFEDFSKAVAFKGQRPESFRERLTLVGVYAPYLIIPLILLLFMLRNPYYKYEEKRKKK
Protocol: Cell membrane preparation was performed following our established method ([Guo et al., 2012]). Briefly, cell pellets were suspended in PBS and sonicated on ice using the following settings: 5 sets (10 strokes/set) at duty cycle = 50, output control = 5. Cell homogenates were centrifuged at 8000 × g for 10 min, and the resulting supernatant was collected and subjected to ultracentrifugation at 100,000 × g for 1 h. The supernatant was discarded and the pellet was gently washed twice with ice-cold PBS. The pellet was then resuspended in PBS and sonicated (3 sets, 10 strokes/set at duty cycle = 50, output control = 5) to homogeneity. Protein concentration was then measured using the standard Bradford reagent (Sigma-Aldrich, St. Louis, MO).
The synthesis of [^125I]-IAF and photolabeling was performed according to our published method ([Pal et al., 2007]). […] [^125I]-IAF was then added (final 1 nM) and incubated for another 40 min with gentle shaking in the dark. Photoactivation of [^125I]-IAF was performed by exposing the samples to a high-pressure AH-6 mercury lamp for 5 s and Laemmli buffer was immediately added to each sample. The samples were then resolved on a 16 × 18 cm SDS gel with 6–18% acrylamide gradient. The gel was dried and exposed to a phosphor screen for 24–48 h and autoradiograms were recorded using a Phosphoimager (Molecular Dynamics).

S2R [2] = molecular target: T1, S2R; set-up: method as in Pal et al., 2007; settings: earlier work of the group; ref Pal et al., 2007; cited from earlier work
S2R [3] = molecular target: T1, S2R; settings: ref Hellewell et al., 1994; cited from earlier work

For `CC(C)=CCN1CC[C@]2(C)c3cc(O)ccc3C[C@H]1[C@H]2C` [(+)-pentazocine], the “protection of [^125I]-IAF photolabeling of the S2R (~18 kDa band)” value (S2R [1]) is listed as “protected by DTG but not by (+)-pentazocine”, the “protection of the [^125I]-IAF photolabeled S2R band” value (S2R [2]) is listed as “but not (+)-pentazocine” and the “binding to the S2R” value (S2R [3]) is listed as “does not bind”.
